This note sets out measurements from patent publication US6544541B1, “Devices and compounds for treating arterial restenosis” (Cardiovascular Solutions, Inc., priority 1999, dated 2003).

The data set relates to cell proliferation. Nature of the data set: discussion of anti-proliferative activity and toxicity of guanidine compounds on cells.

`CC(C=NNC(=N)N)=NNC(=N)N` [methylGAG, methylglyoxal bis-(guanylhydrazone)]: the toxicity result is “lack of toxicity”.

Regarding benzylguanidine, the “inhibition of cell proliferation” value is reported as “poor inhibitor of cell proliferation”.

As to meta-iodobenzylguanidine, the “concentration required to inhibit cell proliferation” value lay in the range of 10 to 50 µM. This molecule also had a toxic concentration (MTT and LDH cytotoxicity assays) above 100 µM.

On to `N=C(N)NCCCCN` [agmatine], for which the “inhibition of cell proliferation” value was “ineffective as an inhibitor of cell proliferation”.
